Test results as given in patent US9321756B2, “Azole compounds as PIM inhibitors” (priority 2011, dated 2016).

Amino acid sequences for entries named in this document (tags omitted).
UniProt P11309, whole entry: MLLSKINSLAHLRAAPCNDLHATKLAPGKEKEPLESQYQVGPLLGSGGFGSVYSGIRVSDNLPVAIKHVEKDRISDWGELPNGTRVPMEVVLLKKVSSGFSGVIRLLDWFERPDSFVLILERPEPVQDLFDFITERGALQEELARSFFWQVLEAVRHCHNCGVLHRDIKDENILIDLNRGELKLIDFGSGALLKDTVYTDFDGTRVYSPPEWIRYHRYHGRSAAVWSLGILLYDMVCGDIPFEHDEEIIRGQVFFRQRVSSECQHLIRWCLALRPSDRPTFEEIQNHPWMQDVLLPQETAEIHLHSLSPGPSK
UniProt Q9P1W9, whole entry: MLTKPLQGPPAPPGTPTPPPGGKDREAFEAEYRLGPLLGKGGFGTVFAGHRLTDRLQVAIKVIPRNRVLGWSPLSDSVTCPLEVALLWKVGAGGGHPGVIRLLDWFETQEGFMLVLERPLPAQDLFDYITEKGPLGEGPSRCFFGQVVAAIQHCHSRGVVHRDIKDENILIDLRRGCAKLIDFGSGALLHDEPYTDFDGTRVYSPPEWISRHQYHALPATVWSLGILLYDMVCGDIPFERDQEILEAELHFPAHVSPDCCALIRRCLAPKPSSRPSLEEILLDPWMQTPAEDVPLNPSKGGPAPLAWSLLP

Assays:
[1] = biological target: Pim-1 stably transfected U2OS human osteogenic sarcoma line (Homo sapiens, UniProt P11309); test: Pim cell assay U2OS (phospho-BAD normalized against total BAD), Pim-1 transfected; assay type: cell-based; settings: read-out: U2OS Pim1_Cell_IC50, U2OS cells
[2] = biological target: full length recombinant Pim-2 (Homo sapiens (Human), UniProt Q9P1W9); test: Pim enzyme assay (HTRF, phosphorylation of biotinylated-BAD (S112) peptide), Pim-2; assay type: biochemical; settings: read-out: Pim2_IC50; Pim-2 enzyme assay
[3] = biological target: full length recombinant Pim-3 (Homo sapiens (Human), UniProt Q86V86); test: Pim enzyme assay (HTRF, phosphorylation of biotinylated-BAD (S112) peptide), Pim-3; assay type: biochemical; settings: read-out: Pim3 IC50; Pim-3 enzyme assay
[4] = biological target: Pim-2 stably transfected U2OS human osteogenic sarcoma line (Homo sapiens, UniProt Q9P1W9); test: Pim cell assay U2OS (phospho-BAD normalized against total BAD), Pim-2 transfected; assay type: cell-based; settings: read-out: U2OS Pim2_Cell_IC50, U2OS cells
[5] = biological target: full length recombinant Pim-1 (Homo sapiens (Human), UniProt P11309); test: Pim enzyme assay (HTRF, phosphorylation of biotinylated-BAD (S112) peptide), Pim-1; assay type: biochemical; settings: read-out: Pim_1_IC50; Pim-1 enzyme assay

Nc1nnc(-c2ccc3[nH]cc(-c4cccc(N5CCC[C@H](N)C5)n4)c3c2)s1
IC50 [1]: 3090 nM | IC50 [2]: 3.7 nM | IC50 [3]: 0.307 nM | IC50 [4]: 19600 nM | IC50 [5]: 1.79 nM
